Reference: ChEMBL document CHEMBL5576083, “Structure-Based Design and Synthesis of Covalent Inhibitors for Deubiquitinase and Acetyltransferase ChlaDUB1 of Chlamydia trachomatis” (J Med Chem, 2024)

Legend:
Chlamydia trachomatis [1] = assay: (§1) Binding affinity to C-terminal 6His-tagged Chlamydia trachomatis DUB1 (130 to 401 residues) expressed in Escherichia coli Rosetta 2 (DE3) cells using Ub-Rh110Gly as fluorogenic substrate assessed as Kinact preincubated for 60 mins followed by substrate addition measured after 360 mins by plate reader analysis; conditions: time 420.0 min
Chlamydia trachomatis [2] = assay: as §1, with “ratio of Kinact/Ki” for “Kinact”; conditions: time 420.0 min

Compound | Kinact (Chlamydia trachomatis [1]) [min⁻¹] | Ratio (Chlamydia trachomatis [2]) [M⁻¹ s⁻¹]
COc1ccccc1CNC(=O)c1ccc(CNC(=O)c2cnc(C#N)nc2)cc1 | 0.222 | –
N#Cc1ncc(C(=O)NCc2ccc(C(=O)NCc3ccccc3)cc2)cn1 | 0.198 | 14.6
N#Cc1ncc(C(=O)NCc2ccc(C(=O)NC34CC5CC(CC(C5)C3)C4)cc2)cn1 | 0.103 | 14.3
